Values of other authors as cited in article PMC10569260 (Nature methods, 2023).

Details: cited from earlier work

[Leu^5]-enkephalin
t1/2 of degradation in vivo: < 4 min
